From patent publication US10472315B2, “Inhibitors of methionine aminopeptidases and methods of treating disorders” (THE JOHNS HOPKINS UNIVERSITY, priority 2009, dated 2019)

Sequences of proteins named here, by UniProt entry; tags and fusion partners are left off.
UniProt P50579, whole entry: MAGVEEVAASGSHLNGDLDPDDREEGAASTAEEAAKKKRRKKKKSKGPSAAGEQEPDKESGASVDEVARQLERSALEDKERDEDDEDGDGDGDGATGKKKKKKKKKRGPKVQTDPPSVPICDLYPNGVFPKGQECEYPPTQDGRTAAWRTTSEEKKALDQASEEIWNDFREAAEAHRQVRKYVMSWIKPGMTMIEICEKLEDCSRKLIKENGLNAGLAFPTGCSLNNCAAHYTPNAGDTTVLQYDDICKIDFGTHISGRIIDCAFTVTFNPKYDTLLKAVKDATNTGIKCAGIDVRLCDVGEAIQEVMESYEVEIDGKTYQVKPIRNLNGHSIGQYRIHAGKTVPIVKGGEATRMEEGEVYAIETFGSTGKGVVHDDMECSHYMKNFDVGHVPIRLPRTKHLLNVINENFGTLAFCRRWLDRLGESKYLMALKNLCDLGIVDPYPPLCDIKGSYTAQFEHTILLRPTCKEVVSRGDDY

Target: HsMetAP2 (Homo sapiens, UniProt P50579)
Assay: Inhibition of HsMetAP2 (orthologous MetAP selectivity)
Format: biochemical
Settings: read-out: inhibit HsMetAP2 (avidity)

**Q.** `O=C1C(Cl)=C(N2C(=O)c3c(Cl)c(Cl)c(Cl)c(Cl)c3C2=O)C(=O)c2ccccc21` [Compound 2] was tested. Which pIC50 did it give?
**A.** 5.64

pIC50: −log10 of the molar value.
